Drawing on patent US10960005B2, “Treatment of relapsed and/or refractory solid tumors and non-hodgkin's lymphomas” (CELGENE QUANTICEL RESEARCH, INC., priority 2016, dated 2021), this text covers IC50 for one compound.

What all share (assay type): cell-based, human
One experiment deals with MS-1 hMCC cells. The experiment in a line: hMCC cell proliferation inhibition (2D, CellTiter-Glo), MS-1. Conditions: MS-1, 2D format, 7 days. As for the experimental part: MKL-1 hMCC cells were cultured in vitro in RPMI-1640 culture medium (Life Technologies, Carlsbad, Calif.) containing 100 units/mL penicdlin G sodium and 100 μg/mL streptomycin sulfate (cRPMI) supplemented with 10% fetal bovine serum (FBS). MS-1 hMCC cells were cultured in vitro in cRPMI supplemented with 20% FBS.
Four to six replicates were performed at each concentration.
On the technique in general: Cellular ATP, detected with luciferase, serves as a proxy for viable cell number.

The subject of the next experiment is NCI-H146 SCLC cell line. The experiment in a line: Antiproliferative activity, NCI-H146. The note with it: 3D assay; Calcein AM.
For experiment [1], the system named is GRP mRNA in NCI-H1417 cells. The experiment in a line: GRP mRNA expression (qRT-PCR), NCI-H1417 cells. Conditions: read-out: IC50±SD down-regulation of GRP mRNA.

For the compound `COc1ccc(-c2c(-c3ccc(C#N)c(F)c3)nc(N3CCC(N)CC3)n(C)c2=O)cc1F` [Compound A], the IC50 (usually the midpoint of a concentration-inhibition curve) is 19.7 nM in the experiment on MS-1 hMCC cells, 9900 nM in the experiment on NCI-H146 SCLC cell line and 8.9 ± 4.6 nM in experiment [1].
